Where two headings read alike, the source gives them in different places.
Assays:
[1] = biological target: T1, Recombinant DPP-IV (Homo sapiens, UniProt P27487); parameters: purchased Chemicon International, Inc; details: read-out: DPP-IV IC50, published value; Leiting et al. (2003); cited from earlier work
[2] = biological target: T1, Recombinant DPP-IV; assay: DPP-IV inhibition assay, chromogenic substrate H-Gly-Pro-pNA; assay type: biochemical; parameters: purchased Chemicon International, Inc; details: positive control

By UniProt entry, the sequences of proteins in these tests, tags left out.
UniProt P27487, whole entry, species assumed: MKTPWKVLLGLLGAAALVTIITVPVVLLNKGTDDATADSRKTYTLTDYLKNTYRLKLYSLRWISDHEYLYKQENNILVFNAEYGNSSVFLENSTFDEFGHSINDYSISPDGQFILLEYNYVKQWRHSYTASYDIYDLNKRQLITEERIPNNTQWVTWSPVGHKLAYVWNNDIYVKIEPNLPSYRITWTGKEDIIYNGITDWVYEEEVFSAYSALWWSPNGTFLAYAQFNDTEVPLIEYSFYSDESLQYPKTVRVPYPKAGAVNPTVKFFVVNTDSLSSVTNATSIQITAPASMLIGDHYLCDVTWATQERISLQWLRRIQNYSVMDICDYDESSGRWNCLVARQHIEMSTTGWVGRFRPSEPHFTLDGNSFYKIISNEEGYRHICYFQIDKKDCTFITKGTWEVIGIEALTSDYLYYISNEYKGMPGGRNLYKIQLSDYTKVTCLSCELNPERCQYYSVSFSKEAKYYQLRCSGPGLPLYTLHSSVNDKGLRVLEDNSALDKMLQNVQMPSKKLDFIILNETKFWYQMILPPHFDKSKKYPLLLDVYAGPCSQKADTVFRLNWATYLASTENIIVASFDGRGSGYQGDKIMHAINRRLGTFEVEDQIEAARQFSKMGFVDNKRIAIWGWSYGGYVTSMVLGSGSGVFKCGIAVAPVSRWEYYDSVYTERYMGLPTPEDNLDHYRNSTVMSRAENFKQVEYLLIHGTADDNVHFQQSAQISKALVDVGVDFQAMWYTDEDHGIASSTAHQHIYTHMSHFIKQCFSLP

With `CC[C@H](C)[C@H](N)C(=O)N1CCC[C@H]1C(=O)N[C@H](C(=O)O)[C@@H](C)CC` [Diprotin A, Ile-Pro-Ile] as the molecule, how does the IC50 [1] read?
Its IC50 is 3.5 µM.

What about the IC50 [2] of the same molecule?
Its IC50 is 5.1 µM.
